Reference: patent US5972952A, “Neuroprotective pharmaceutical composition containing stereoisomers of arylcyclohexylamines” (Le Centre National De La Recherche Scientifique, priority 1996, dated 1999)

Target: PCP receptor
Assay: [^3H]TCP binding to the PCP receptor (rat brain minus cerebellum homogenate)
Settings: inhibition of [^3H]TCP (1 nM) specific binding, 30 min, 25° C., pH 7.7
Method: [^3 H] 1-[1-(2-thienyl)-2-methylcyclohexyl]piperidine (TCP) binding to the PCP receptor was performed as previously described. Vignon, et al., Brain Research 280:194-197 (1983). The PCP receptor site is a regulatory site within the NMDA receptor complex. Scatton, B., Fundam. Clin. Pharmacol. 7:389 (1993) and J. T. Wroblewski, et al., Proc. Natl. Assoc. Sci. USA 89:5068 (1987). The rat brain (minus the cerebellum) was removed and homogenized with an Ultraturax (Ika Werke, Staufen, Germany, maximum setting) in a 50 mM Tris/HCl, pH 7.7 buffer for 20 s at 4° C. The homogenate was then centrifuged at 49,000 g for 20 min. and the pellet was resuspended in the same buffer and the homogenization-centrifugation steps performed a second time. […]
The homogenate (0.5-0.8 mg protein/ml) was incubated with N-[1-(2-thienyl) cyclohexyl]3,4-[^3 H]piperidine ([^3 H]TCP, 1 nM) (Amersham, Arlington Heights, Ill, 48 Ci/mmol) in a 5 mM Tris/Hepes, pH 7.7 buffer in the absence (total binding) and in the presence of the test compounds for 30 min. at 25° C. in a volume of 0.5 ml. […] The filters were rinsed twice with 5 ml of a 50 mM NaCl, Tris HCl 10 mM, pH 7.7 buffer and the radioactivity retained counted in 3.5 ml ACS (Amersham) with an Excel 1410 (LKB) liquid scintillation spectrophotometer. The nonspecific binding was determined in parallel experiments in the presence of 100 μM unlabeled TCP. […]

C[C@@H]1CCCC[C@]1(c1cccs1)N1CCCCC1 [(1S,2R)1-[1-(2-Thienyl)-2-methylcyclohexyl]-piperidine]
IC50: 4.3 ± 1.1 nM
